From ChEMBL document CHEMBL1955802, “Amidine-oximes: reactivators for organophosphate exposure” (2011)

Legend:
[1] = Drug degradation of the compound in CD2Cl2 after 5 days; settings: 120 h
[2] = Chemical stability of the compound assessed as drug degradation after 3 months at -18 degreeC; settings: 2191.5 h
Rattus norvegicus = assay: Toxicity in iv dosed rat assessed as mortality; settings: in vivo
[3] = Dissociation constant, pKa of the compound
Mus musculus = assay: Toxicity in ip dosed Swiss Webster mouse assessed as mortality after 24 hrs; settings: in vivo

Structure (SMILES)	Drug degradation [1]	Drug degradation [2]	other results
CCC/N=C(/C=N/O)N(C)C	Active	–	–
CN(C)C(=N)/C=N/O.Cl	–	Not Active	–
CCC/N=C(/C=N/O)N(C)C.Cl	–	Not Active	–
C[n+]1ccc(/C=N/O)cc1.[Cl-]	–	–	LD50 (Rattus norvegicus): 4.2 mg/kg
CN(C)C(=N)/C=N/O	Active	–	–
O/N=C/c1cc[n+](C[n+]2ccc(/C=N/O)cc2)cc1.[Cl-].[Cl-]	–	–	pKa [3]: 7.3
CC/N=C(/C=N/O)N(C)C.Cl	–	Not Active	Activity (Mus musculus): Non-toxic
C/N=C(/C=N/O)N(C)C	Active	–	–
CC/N=C(/C=N/O)N(C)C	Active	–	–
C/N=C(/C=N/O)N(C)C.Cl	–	Not Active	–
